# In paper PMC7171691, “Chemical Synthesis, Efficacy, and Safety of Antimalarial Hybrid Drug Comprising of Sarcosine and Aniline Pharmacophores as Scaffolds” (Journal of Tropical Medicine, 2020):
# “Also recorded” adds a separate entry of the source.
# Assay: Solubility observations
# Type: physicochemical
substance,measurement,setting,value
3-chloro-4-(4-chlorophenoxy) aniline,Solubility in dimethyl sulfoxide (DMSO),DMSO,soluble
same,Solubility in Tween 80,Tween 80,slightly soluble
same,Solubility in water,water,very low; also recorded: low water-soluble
